From US20260242405A1, “N-DERIVATIZED SIALIC ACIDS AND RELATED SIALOSIDES” (THE REGENTS OF THE UNIVERSITY OF CALIFORNIA, priority 2023, published 2026) come the findings set out here.

This assay concerns all sialidases tested (influenza NAs, hNEU2, SpNanA, PmST1). The conditions noted are these: inhibitor 8.0 μM; Tables 4 and 5.

For `CC(=O)N[C@H]1[C@H]([C@H](O)[C@H](O)CO)OC(C(=O)O)=C[C@@H]1N` [4NH2Neu5Ac2en, 4-amino-2,3-dehydro-N-acetylneuraminic acid, reference compound], the “inhibitory activity and selectivity over all sialidases tested, in words” value is recorded as “selective inhibitors against influenza NAs”.
With `CC(=O)N[C@H]1[C@H]([C@H](O)[C@H](O)CO)OC(C(=O)O)=C[C@@H]1NC(C)=O` [4NAcNeu5Ac2en], the “inhibitory activity and selectivity over all sialidases tested, in words” value is “not an effective inhibitor against any of the sialidases tested”.
